Assay results taken from PubChem BioAssay AID1136 (Sanford-Burnham Center for Chemical Genomics, 2008).
This is one part of the list. Calls of active or inactive are those of the source.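 Rule for the calls: active = activation factor at least 2 at 20 µM; inactive = the rest.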

Protein sequences, listed by entry. Tags and fused reporters are not part of them.
UniProt P05186, whole entry: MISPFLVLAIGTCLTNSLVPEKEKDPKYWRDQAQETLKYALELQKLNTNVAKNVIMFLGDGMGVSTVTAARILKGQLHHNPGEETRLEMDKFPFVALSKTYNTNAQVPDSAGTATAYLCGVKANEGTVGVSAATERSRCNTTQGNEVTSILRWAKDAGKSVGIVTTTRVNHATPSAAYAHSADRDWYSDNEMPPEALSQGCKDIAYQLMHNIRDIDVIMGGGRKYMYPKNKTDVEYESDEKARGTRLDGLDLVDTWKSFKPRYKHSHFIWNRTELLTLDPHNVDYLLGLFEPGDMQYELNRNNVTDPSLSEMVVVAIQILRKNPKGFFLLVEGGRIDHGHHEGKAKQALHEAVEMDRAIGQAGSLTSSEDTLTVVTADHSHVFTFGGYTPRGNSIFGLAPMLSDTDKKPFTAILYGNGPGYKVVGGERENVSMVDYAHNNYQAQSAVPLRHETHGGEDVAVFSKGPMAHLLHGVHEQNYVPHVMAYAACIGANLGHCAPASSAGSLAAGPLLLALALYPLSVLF

Target: Alkaline phosphatase, tissue-nonspecific isozyme (Homo sapiens) (UniProt P05186)
Test: activation of human TNAP, high DEA acceptor – biochemical, luminescence, uHTS, primary screen (AID 1136)
Details: purified TNAP, CDP-star luminescence, 1 M DEA, 30 min, at 20 µM; active compounds read high, 0 = EDTA background, 1 = DMSO-only activity

Compound | activation factor
CCNC(=S)/N=C(\N)N[N+](=O)[O-] | inactive
O=C(NC1CCS(=O)(=O)C1)NP(=S)(Oc1ccccc1)Oc1ccccc1 (stereo unspecified) | inactive
c1ccc(-c2nn[nH]n2)c(-c2nn[nH]n2)c1 | inactive
CCOC(=O)NC(Sc1ccccc1)C(Cl)(Cl)Cl (stereo unspecified) | inactive
CCOC(=O)c1ccc(NP(C)(=O)Oc2ccc(F)cc2)cc1 (stereo unspecified) | inactive
COc1ccc(OP(C)(=O)Nc2ccc(SC(F)(F)F)cc2)cc1 (stereo unspecified) | inactive: 1.1
COC(=O)c1cc2c(s1)N=C(c1ccccc1)N(C)P2(=O)N1CCOCC1 (stereo unspecified) | inactive
CC(=O)NC(SC(=S)N(CC(C)C)CC(C)C)C(Cl)(Cl)Cl (stereo unspecified) | inactive
Cc1ccc(OP(=O)(Nc2ccccn2)Oc2ccc(C)cc2)cc1 | inactive
CCN(CC)CCCOC(=O)C(O)(c1ccccc1)C1CCCCC1 (stereo unspecified) | inactive
CCC(=O)N1C2C3N(C(=O)CC)C1C1N(C(=O)CC)C(C(N1C(=O)CC)N3C(=O)CC)N2C(=O)CC | inactive
CP(=O)(Nc1ccccc1)Oc1ccc(F)cc1 (stereo unspecified) | inactive
Cc1cc(C)cc(OP(C)(=O)Nc2cccc(C(F)(F)F)c2)c1 (stereo unspecified) | inactive
Cc1cc(SC(NC(=O)c2ccc(F)cc2)C(Cl)(Cl)Cl)ncn1 (stereo unspecified) | inactive
CCOP(=O)(Nc1ccccc1)OCC | inactive
COc1ccccc1OP(C)(=O)Nc1ccc(C)c(C)c1 (stereo unspecified) | inactive

Compound | activation factor
COc1ccc(OP(C)(=O)Nc2ccccc2Br)cc1 (stereo unspecified) | inactive
Cc1nc2ccc3ccccc3c2o1.O=[N+]([O-])c1cc([N+](=O)[O-])c(O)c([N+](=O)[O-])c1 | inactive
CCN(N=Nc1nonc1N)c1nonc1N | inactive
CP(=O)(Nc1ccc(Cl)cc1Cl)Oc1ccccc1 (stereo unspecified) | inactive
CP(=O)(OCCOc1ccccc1)OCCOc1ccccc1 | inactive
NC(=O)c1cc([N+](=O)[O-])cc([N+](=O)[O-])c1N | inactive
Cc1ccc(N/C(=N/P(=O)(N2CCOCC2)N2CCOCC2)N2CCOCC2)cc1 | inactive
COc1ccccc1OP(=O)(Nc1ccc(C)cn1)Oc1ccccc1OC | inactive
COc1ccc(OP(C)(=O)Nc2ccccn2)cc1 (stereo unspecified) | inactive: 1.1
CN1CCCC(OC(=O)C(c2ccccc2)c2ccccc2)C1 (stereo unspecified) | inactive
Clc1ccc(Cl)c(NC2=NCC(CBr)S2)c1 (stereo unspecified) | inactive
CN(C)CCOC(=O)C(O)(c1ccccc1)C1CCCC1 (stereo unspecified) | inactive
Cc1c(NP(C)(=O)Oc2ccc(C(C)C)cc2)c(=O)n(-c2ccccc2)n1C (stereo unspecified) | inactive: 1.1
CC(C)CC(=O)NC(Sc1ccc(Cl)cc1)C(Cl)(Cl)Cl (stereo unspecified) | inactive
O=[N+]([O-])c1cc([N+](=O)[O-])c(Nc2ccccn2)c([N+](=O)[O-])c1 | inactive: 0.7
